B1: Transcription factor p65 (Homo sapiens), Q04206 (parent)
chain: MDELFPLIFPAEPAQASGPYVEIIEQPKQRGMRFRYKCEGRSAGSIPGERSTDTTKTHPTIKINGYTGPGTVRISLVTKDPPHRPHPHELVGKDCRDGFYEAELCPDRCIHSFQNLGIQCVKKRDLEQAISQRIQTNNNPFQVPIEEQRGDYDLNAVRLCFQVTVRDPSGRPLRLPPVLSHPIFDNRAPNTAELKICRVNRNSGSCLGGDEIFLLCDKVQKEDIEVYFTGPGWEARGSFSQADVHRQVAIVFRTPPYADPSLQAPVRVSMQLRRPSDRELSEPMEFQYLPDTDDRHRIEEKRKRTYETFKSIMKKSPFSGPTDPRPPPRRIAVPSRSSASVPKPAPQPYPFTSSLSTINYDEFPTMVFPSGQISQASALAPAPPQVLPQAPAPAPAPAMVSALAQAPAPVPVLAPGPPQAVAPPAPKPTQAGEGTLSEALLQLQFDDEDLGALLGNSTDPAVFTDLASVDNSEFQQLLNQGIPVAPHTTEPMLMEYPEAITRLVTGAQRPPDPAPAPLGAPGLPNGLLSGDEDFSSIADMDFSALLSQISS
partner: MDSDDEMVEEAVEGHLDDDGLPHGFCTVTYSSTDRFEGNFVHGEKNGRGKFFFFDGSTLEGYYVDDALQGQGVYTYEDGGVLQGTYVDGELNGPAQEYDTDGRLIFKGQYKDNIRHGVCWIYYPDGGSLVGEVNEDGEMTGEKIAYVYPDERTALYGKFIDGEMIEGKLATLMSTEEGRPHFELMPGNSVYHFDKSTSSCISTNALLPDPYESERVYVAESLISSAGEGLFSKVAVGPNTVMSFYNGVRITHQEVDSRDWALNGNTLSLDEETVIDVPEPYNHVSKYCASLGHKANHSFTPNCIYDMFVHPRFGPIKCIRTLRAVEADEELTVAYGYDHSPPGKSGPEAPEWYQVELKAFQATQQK

Variants of: B1
Details: with setd7_human SETD7, Q8WTS6

Variant	effect of a mutation on the interaction
MDELFPLIFPAEPAQASGPYVEIIEQPKQRGMRFRYKCEGRSAGSIPGERSTDTTKTHPTIKINGYTGPGTVRISLVTKDPPHRPHPHELVGKDCRDGFYEAELCPDRCIHSFQNLGIQCVKKRDLEQAISQRIQTNNNPFQVPIEEQRGDYDLNAVRLCFQVTVRDPSGRPLRLPPVLSHPIFDNRAPNTAELKICRVNRNSGSCLGGDEIFLLCDKVQKEDIEVYFTGPGWEARGSFSQADVHRQVAIVFRTPPYADPSLQAPVRVSMQLRRPSDRELSEPMEFQYLPDTDDRHRIEEKRKRTYETFKSIMRKSPFSGPTDPRPPPRRIAVPSRSSASVPKPAPQPYPFTSSLSTINYDEFPTMVFPSGQISQASALAPAPPQVLPQAPAPAPAPAMVSALAQAPAPVPVLAPGPPQAVAPPAPKPTQAGEGTLSEALLQLQFDDEDLGALLGNSTDPAVFTDLASVDNSEFQQLLNQGIPVAPHTTEPMLMEYPEAITRLVTGAQRPPDPAPAPLGAPGLPNGLLSGDEDFSSIADMDFSALLSQISS [K314R]	disrupting interaction
MDELFPLIFPAEPAQASGPYVEIIEQPKQRGMRFRYKCEGRSAGSIPGERSTDTTKTHPTIKINGYTGPGTVRISLVTKDPPHRPHPHELVGKDCRDGFYEAELCPDRCIHSFQNLGIQCVKKRDLEQAISQRIQTNNNPFQVPIEEQRGDYDLNAVRLCFQVTVRDPSGRPLRLPPVLSHPIFDNRAPNTAELKICRVNRNSGSCLGGDEIFLLCDKVQKEDIEVYFTGPGWEARGSFSQADVHRQVAIVFRTPPYADPSLQAPVRVSMQLRRPSDRELSEPMEFQYLPDTDDRHRIEEKRKRTYETFKSIMKRSPFSGPTDPRPPPRRIAVPSRSSASVPKPAPQPYPFTSSLSTINYDEFPTMVFPSGQISQASALAPAPPQVLPQAPAPAPAPAMVSALAQAPAPVPVLAPGPPQAVAPPAPKPTQAGEGTLSEALLQLQFDDEDLGALLGNSTDPAVFTDLASVDNSEFQQLLNQGIPVAPHTTEPMLMEYPEAITRLVTGAQRPPDPAPAPLGAPGLPNGLLSGDEDFSSIADMDFSALLSQISS [K315R]	disrupting interaction

Variants of: B1
Details: with setd7_human SETD7, Q8WTS6
Remark: another data set of the same source

Variant	effect of a mutation on the interaction
MDELFPLIFPAEPAQASGPYVEIIEQPKQRGMRFRYKCEGRSAGSIPGERSTDTTKTHPTIKINGYTGPGTVRISLVTKDPPHRPHPHELVGKDCRDGFYEAELCPDRCIHSFQNLGIQCVKKRDLEQAISQRIQTNNNPFQVPIEEQRGDYDLNAVRLCFQVTVRDPSGRPLRLPPVLSHPIFDNRAPNTAELKICRVNRNSGSCLGGDEIFLLCDKVQKEDIEVYFTGPGWEARGSFSQADVHRQVAIVFRTPPYADPSLQAPVRVSMQLRRPSDRELSEPMEFQYLPDTDDRHRIEEKRKRTYETFKSIMRKSPFSGPTDPRPPPRRIAVPSRSSASVPKPAPQPYPFTSSLSTINYDEFPTMVFPSGQISQASALAPAPPQVLPQAPAPAPAPAMVSALAQAPAPVPVLAPGPPQAVAPPAPKPTQAGEGTLSEALLQLQFDDEDLGALLGNSTDPAVFTDLASVDNSEFQQLLNQGIPVAPHTTEPMLMEYPEAITRLVTGAQRPPDPAPAPLGAPGLPNGLLSGDEDFSSIADMDFSALLSQISS [K314R]	decreasing interaction
